Reference: ChEMBL document CHEMBL3875233, “Non-kinase targets of protein kinase inhibitors” (Nat Rev Drug Discov, 2017)

Chains of the proteins cited; added tags and fusions are not shown. Lines headed by an entry give the natural chain unless they say otherwise; changes in a name come on top.
UniProt P49674: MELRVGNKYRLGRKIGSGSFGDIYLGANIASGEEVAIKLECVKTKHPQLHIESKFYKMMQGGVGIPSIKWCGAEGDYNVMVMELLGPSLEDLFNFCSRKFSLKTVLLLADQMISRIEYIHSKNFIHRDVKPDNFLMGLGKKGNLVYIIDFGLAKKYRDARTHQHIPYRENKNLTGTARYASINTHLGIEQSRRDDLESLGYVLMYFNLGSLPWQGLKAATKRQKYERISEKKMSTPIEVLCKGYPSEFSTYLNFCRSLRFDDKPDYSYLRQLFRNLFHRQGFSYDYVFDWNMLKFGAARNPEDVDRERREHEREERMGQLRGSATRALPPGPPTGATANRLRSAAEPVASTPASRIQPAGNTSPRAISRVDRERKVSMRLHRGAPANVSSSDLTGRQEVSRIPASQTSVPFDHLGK
UniProt P42338: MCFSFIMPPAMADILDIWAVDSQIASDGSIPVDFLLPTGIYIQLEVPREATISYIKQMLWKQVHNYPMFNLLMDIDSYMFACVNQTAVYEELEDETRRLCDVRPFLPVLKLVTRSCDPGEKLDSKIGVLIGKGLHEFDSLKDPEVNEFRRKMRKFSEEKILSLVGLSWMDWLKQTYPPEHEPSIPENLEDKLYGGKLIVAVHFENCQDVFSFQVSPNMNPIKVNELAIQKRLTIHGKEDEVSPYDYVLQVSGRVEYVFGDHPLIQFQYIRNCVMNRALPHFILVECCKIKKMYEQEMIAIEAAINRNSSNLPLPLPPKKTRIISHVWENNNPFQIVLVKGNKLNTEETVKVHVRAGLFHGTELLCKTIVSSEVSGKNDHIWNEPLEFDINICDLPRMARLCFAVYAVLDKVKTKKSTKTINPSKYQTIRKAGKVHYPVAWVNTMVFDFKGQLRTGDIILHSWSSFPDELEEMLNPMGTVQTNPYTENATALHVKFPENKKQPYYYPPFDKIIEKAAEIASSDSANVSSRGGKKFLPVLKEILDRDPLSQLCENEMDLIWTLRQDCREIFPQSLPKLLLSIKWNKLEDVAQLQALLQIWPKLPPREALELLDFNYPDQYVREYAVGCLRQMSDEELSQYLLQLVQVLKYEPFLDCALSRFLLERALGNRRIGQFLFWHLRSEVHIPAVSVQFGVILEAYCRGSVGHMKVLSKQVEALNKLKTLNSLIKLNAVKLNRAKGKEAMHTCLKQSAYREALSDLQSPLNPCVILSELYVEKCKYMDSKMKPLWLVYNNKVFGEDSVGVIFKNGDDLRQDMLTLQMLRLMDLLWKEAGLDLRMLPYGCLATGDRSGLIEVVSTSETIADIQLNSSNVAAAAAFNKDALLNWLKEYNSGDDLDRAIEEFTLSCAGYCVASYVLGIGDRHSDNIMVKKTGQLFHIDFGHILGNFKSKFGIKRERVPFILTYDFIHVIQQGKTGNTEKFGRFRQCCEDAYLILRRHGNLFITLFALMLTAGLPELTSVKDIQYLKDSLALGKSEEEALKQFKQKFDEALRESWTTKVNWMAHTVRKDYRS

Key:
[1] = molecular target: Casein kinase I isoform epsilon (Homo sapiens, UniProt P49674)
[2] = molecular target: Phosphatidylinositol 4,5-bisphosphate 3-kinase catalytic subunit beta isoform (Homo sapiens, UniProt P42338); test: Inhibition of immobilized N-LY294002 bead binding to PI3Kbeta (unknown origin) expressed in HEK293T cells incubated for 1 hr by LC-MS/MS analysis; format: cell-based, HEK-293T

| IC50 [2] | SMILES | IC50 [1] |
| --- | --- | --- |
|  | Nc1ncnc2c1c(COc1cccc(Cl)c1)nn2C1CCOCC1 | 0.032 to 0.711 µM |
| 0.42 µM | O=c1cc(N2CCOCC2)oc2c(-c3ccccc3)cccc12 [LY-294002] |  |
